Laboratory results: US20160200847A1, “CLICKABLE POLYMERS AND GELS FOR MICROARRAY AND OTHER APPLICATIONS” (priority 2014, published 2016)

Tests used:
Concanavalin A (ConA) [1] = molecular target: T1, Concanavalin A (ConA) (Canavalia ensiformis, UniProt P02866); details: read-out: KD, surf
Concanavalin A (ConA) [2] = molecular target: T1, Concanavalin A (ConA); assay: Glycan microarray incubated with biotinylated ConA, Cy3-streptavidin fluorescence detection; details: spotted at 50 μM; 100 ng/ml (0.943 nM) biotinylated ConA; Cy3-labelled streptavidin

SMILES	pKd (Concanavalin A (ConA) [1])	interaction with ConA (spot fluorescence intensity, qualitative) (Concanavalin A (ConA) [2])	pKd (Concanavalin A (ConA) [1]; glycomimetic printed at 10 μM, ConA 47.2 pM to 469.3 nM, KD,surf obtained as EC50 of sigmoidal fit)	pKd (Concanavalin A (ConA) [1]; glycomimetic printed at 50 μM, ConA 47.2 pM to 469.3 nM, KD,surf obtained as EC50 of sigmoidal fit)
[N-]=[N+]=NCCOC1CC(C(=O)NCc2ccc(CO)cc2)C(C(=O)NCc2ccc(CO)cc2)CC1O[C@H]1O[C@H](CO)[C@@H](O)[C@H](O)[C@@H]1O (some centres unmarked)	9.37 and 9.12			
CCCCC(CC)CNC(=O)C1CC(OCCN=[N+]=[N-])C(O[C@H]2O[C@H](CO)[C@@H](O)[C@H](O)[C@@H]2O)CC1C(=O)NCC(CC)CCCC (some centres unmarked)	8.27	does not seem to interact		
[N-]=[N+]=NCCOC1CC(C(=O)NCc2ccccc2)C(C(=O)NCc2ccccc2)CC1O[C@H]1O[C@H](CO)[C@@H](O)[C@H](O)[C@@H]1O (some centres unmarked)			9.00	9.59

pKd: −log10 of the molar value. Several values for one entry are separate records, joined by “and”; a condition that tells them apart may be missing. Equal entries are not always repeated. Where two headings read alike, the source gives them in different places.
